Measurements from PubChem BioAssay AID540308 (The Scripps Research Institute Molecular Screening Center, 2011).
The entries are a selection whose mix differs from that of the whole data set. Some salts and complexes are drawn in separate pieces, as the source files them; their charges need not balance. Calls of active or inactive are those of the source.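 How the source made its calls: active means activation above a per-plate cutoff, the mean activation of sample wells on that plate plus 3 SD (cut at about 8% in these data); inactive means the rest.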

Chains of the proteins cited; added tags and fusions are not shown.
UniProt P32245, whole entry: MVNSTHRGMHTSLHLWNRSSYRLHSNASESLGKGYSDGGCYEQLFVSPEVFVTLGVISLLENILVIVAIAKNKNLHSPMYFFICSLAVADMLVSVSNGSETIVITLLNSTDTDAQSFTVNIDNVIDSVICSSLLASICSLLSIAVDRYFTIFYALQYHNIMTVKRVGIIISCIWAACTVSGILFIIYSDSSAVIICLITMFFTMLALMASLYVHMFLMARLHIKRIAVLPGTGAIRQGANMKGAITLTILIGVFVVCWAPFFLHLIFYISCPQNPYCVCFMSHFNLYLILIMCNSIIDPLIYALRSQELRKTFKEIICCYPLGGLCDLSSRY

Biological target: Melanocortin receptor 4 (Homo sapiens) (UniProt P32245)
Assay: MC4R agonists recruiting beta-arrestin, primary screen, cell-based, luminescence, agonist arm of biased-ligand search (AID 540308)
Conditions: U2OS MC4R beta-arrestin complementation, at 8.9 µM, stronger effect = higher value, percent of melanotan II response, DMSO zero

Structure (SMILES) | activation
COc1ccccc1OP(C)(=O)Nc1ccc(Br)cc1 (centres undefined) | inactive: -0.34%
COc1ccc(OP(C)(=O)Nc2ccccn2)cc1 (centres undefined) | inactive: 0.79%
CN(C)CCOC(=O)C(O)(c1ccccc1)C1CCCC1 (centres undefined) | inactive: -1.04%
O=[N+]([O-])c1cc([N+](=O)[O-])c(Nc2ccccn2)c([N+](=O)[O-])c1 | inactive: -4.25%
Cc1c(NP(C)(=O)Oc2ccc(C(C)C)cc2)c(=O)n(-c2ccccc2)n1C (centres undefined) | inactive: -1.68%
COc1ccccc1OP(C)(=O)Nc1ccc(C)cc1C (centres undefined) | inactive: -1.25%
CP(=O)(Nc1ccccn1)Oc1ccccc1 (centres undefined) | inactive: 0.25%
CCc1ccc(OP(C)(=O)O)cc1 | inactive: -2.37%
Cc1cc(C)cc(OP(C)(=O)Nc2cccc(C(F)(F)F)c2)c1 (centres undefined) | inactive: 3.79%
O=C1C(O)=C([N+](=O)[O-])C(=O)C(O)=C1[N+](=O)[O-] | inactive: -3.47%
COc1ccccc1OP(C)(=O)Nc1ccc(C)c(C)c1 (centres undefined) | inactive: -2.37%
COc1ccc(OP(C)(=O)Nc2ccccc2Br)cc1 (centres undefined) | inactive: 0.03%
CP(=O)(OCCOc1ccccc1)OCCOc1ccccc1 | inactive: -1.43%
CCCCCCCCCCCCCCCC1C[N+](C)(C)CCOP(C)(=O)O1 (centres undefined) | inactive: -0.92%
CP(=O)(Nc1ccc(Cl)cc1Cl)Oc1ccccc1 (centres undefined) | inactive: 0.97%
CCOC(=O)c1ccc(NP(C)(=O)Oc2ccc(Cl)cc2)cc1 (centres undefined) | inactive: -1.19%
CP(=O)(OC12CC3CC(CC(C3)C1)C2)OC12CC3CC(CC(C3)C1)C2 | inactive: 0.97%
COc1ccc(OP(C)(=O)Nc2ccc(Br)cc2)cc1 (centres undefined) | inactive: 1.15%
CCN(CC)CC(O)COC(=O)C(O)(c1ccccc1)C1CCCCC1 (centres undefined) | inactive: -2.37%
O=C(OCCCN1CCCC1)C(O)(c1ccccc1)C1CCCCC1 (centres undefined) | inactive: -1.36%
COc1ccccc1OP(C)(=O)Nc1c(C)n(C)n(-c2ccccc2)c1=O (centres undefined) | inactive: -1.06%
CCc1ccc(OP(C)(=O)Nc2cccnc2)cc1 (centres undefined) | inactive: 0.13%
CP(=O)(Oc1ccccc1)N1CCOC1=O (centres undefined) | inactive: -1.3%
CC(C)(C)c1ccc(OP(C)(=O)O)cc1 | inactive: 0.52%

Structure (SMILES) | activation
COc1ccccc1OP(C)(=O)Nc1ccccc1Br (centres undefined) | inactive: -0.54%
CP(=O)(Nc1ccc(Cl)cc1)Oc1ccc(F)cc1 (centres undefined) | inactive: -0.84%
CN(C)C(=O)c1c([N+](=O)[O-])cc([N+](=O)[O-])cc1[N+](=O)[O-] | inactive: -1.13%
CP(=O)(Nc1ccc(SC(F)(F)F)cc1)Oc1ccc(F)cc1 (centres undefined) | inactive: 4.68%
CCOP(C)(=S)SCC(=O)NC(C)(CC)C(=O)O (centres undefined) | inactive: 0.38%
CP(=O)(Nc1ccc2c(c1)OCCO2)Oc1ccccc1 (centres undefined) | inactive: -0.54%
Cc1ccccc1NP(C)(=O)Nc1ccccc1C | inactive: -1.5%
COc1ccc(OP(C)(=O)Nc2cccc(Br)c2)cc1 (centres undefined) | inactive: 0.53%
CN(C)CCOC(=O)C(O)(c1ccccc1)C1CCCCC1 (centres undefined) | inactive: -2.27%
COc1ccc(NP(C)(=O)Oc2ccccc2OC)cc1 (centres undefined) | inactive: -1.22%
O=[N+]([O-])c1ccc(OP2(=O)COCCO2)cc1 (centres undefined) | inactive: -1.41%
Cc1cc(-c2cccc3ccccc23)c(C)cn1.O=[N+]([O-])c1cc([N+](=O)[O-])c(O)c([N+](=O)[O-])c1 | inactive: -3.47%
O=[N+]([O-])c1cc([N+](=O)[O-])c(NCC2CCS(=O)(=O)C2)c([N+](=O)[O-])c1 (centres undefined) | inactive: -4.9%
Cc1c(C(c2ccc3c(c2)OCO3)c2c(C)n(C)n(-c3ccccc3)c2=O)c(=O)n(-c2ccccc2)n1C.O=[N+]([O-])c1cc([N+](=O)[O-])c(O)c([N+](=O)[O-])c1 | inactive: 0.27%
CCOC(=O)c1ccc(NP(C)(=O)Oc2ccc(F)cc2)cc1 (centres undefined) | inactive: -0.91%
COc1ccc(OP(C)(=O)Nc2ccc(SC(F)(F)F)cc2)cc1 (centres undefined) | inactive: 0.01%
Cc1c([N+](=O)[O-])cc([N+](=O)[O-])c(Br)c1[N+](=O)[O-] | inactive: -0.08%
CCN(CC)CCCOC(=O)C(O)(c1ccccc1)C1CCCCC1 (centres undefined) | inactive: -0.96%
CP(=O)(Nc1ccccc1)Oc1ccc(F)cc1 (centres undefined) | inactive: -0.7%
CCCCCOc1ccc(NP(C)(=O)Oc2ccc(Cl)cc2Cl)cc1 (centres undefined) | inactive: 2.16%
O=[N+]([O-])c1cc([N+](=O)[O-])c(OC2CCCCC2O)c([N+](=O)[O-])c1 (centres undefined) | inactive: -0.74%
O=[N+]([O-])c1cc([N+](=O)[O-])c(Nc2ccc(Cl)cc2)c([N+](=O)[O-])c1 | inactive: -3.48%
CP(=O)(Nc1ccccc1F)Oc1ccccc1 (centres undefined) | inactive: 1.1%
CC(C)c1ccc(OP(C)(=O)Nc2ccc(SC(F)(F)F)cc2)cc1 (centres undefined) | inactive: -1.05%

Structure (SMILES) | activation
O=C(OC1CN2CCC1CC2)c1ccc([N+](=O)[O-])cc1 (centres undefined) | inactive: -0.53%
O=C(OCCN1CCN(CCOCc2ccccc2)CC1)C(O)(c1ccccc1)c1ccccc1 | inactive: -1.56%
COc1ccc2c(c1O)-c1c(O)c(OC)cc3c1[C@H](C2)[N+](C)(C)CC3.O=[N+]([O-])c1cc([N+](=O)[O-])c([O-])c([N+](=O)[O-])c1[O-] | inactive: -1.78%
COc1ccccc1OP(C)(=O)Nc1cccc(Br)c1 (centres undefined) | inactive: -0.61%
CCOC(=O)c1ccc(NP(C)(=O)Oc2cc(C)cc(C)c2)cc1 (centres undefined) | inactive: 0.49%
Cc1cc(C)cc(OP(C)(=O)Nc2ccc(C)cc2C)c1 (centres undefined) | inactive: 3.34%
Cc1ccc(C)c(NP(C)(=O)Oc2ccccc2)c1 (centres undefined) | inactive: 1.87%
CP(=O)(Nc1cccc(Br)c1)Oc1ccccc1 (centres undefined) | inactive: -3.62%
Cc1cc(C)cc(OP(C)(=O)Nc2ccccn2)c1 (centres undefined) | inactive: -0.5%
O=C(O)c1cccc(Nc2c([N+](=O)[O-])cc([N+](=O)[O-])cc2[N+](=O)[O-])c1 | inactive: -3.88%
CC1=NCCc2c1[nH]c1ccccc21.O=[N+]([O-])c1cc([N+](=O)[O-])c(O)c([N+](=O)[O-])c1 | inactive: -2.88%
CCOC(=O)C(CC)C1=NC(C)(C)Cc2ccccc21.O=[N+]([O-])c1cc([N+](=O)[O-])c(O)c([N+](=O)[O-])c1 (centres undefined) | inactive: -1.21%
O=[N+]([O-])c1cc([N+](=O)[O-])c(Nc2nnnn2CCO)c([N+](=O)[O-])c1 | inactive: -2.52%
CC1=C2N=C(C=C3N=C(C(C)=C4[N-][C@@](C)([C@@H]5N=C1[C@](C)(CCC(=O)NC[C@@H](C)OP(=O)([O-])O[C@H]1[C@@H](O)[C@@H](n6cnc7cc(C)c(C)cc76)O[C@@H]1CO)[C@H]5CC(N)=O)[C@@](C)(CC(N)=O)[C@@H]4CCC(N)=O)[C@@](C)(CC(N)=O)[C@@H]3CCC(N)=O)C(C)(C)[C@@H]2CCC(N)=O.[C-]#N.[Co+3] | inactive: -2.72%
CN1CCCCC1COC(=O)C1(O)c2ccccc2CCc2ccccc21 (centres undefined) | inactive: -1.87%
COc1ccccc1OP(C)(=O)Nc1c(C)cccc1C (centres undefined) | inactive: 1.87%
CP(=O)(Nc1ccc(SC(F)(F)F)cc1)Oc1ccccc1 (centres undefined) | inactive: -0.72%
CCCOc1ccc(NP(C)(=O)Oc2ccc(Cl)cc2)cc1 (centres undefined) | inactive: -1.05%
O=[N+]([O-])c1cc([N+](=O)[O-])c(-n2nnc3ccccc32)c([N+](=O)[O-])c1 | inactive: -1.66%
O=[N+]([O-])c1cc([N+](=O)[O-])c(-c2cnn(-c3ccccc3)c2)c([N+](=O)[O-])c1 | inactive: 0.81%
Cc1nc2ccc3ccccc3c2s1.O=[N+]([O-])c1cc([N+](=O)[O-])c(O)c([N+](=O)[O-])c1 | inactive: -2.59%
CP(=O)(Oc1ccccc1)OC(c1ccccc1)C(F)(F)F (centres undefined) | inactive: -1.1%
CP(=O)(Nc1ccc(SC(F)(F)F)cc1)Oc1ccc(Cl)cc1 (centres undefined) | inactive: 4.74%
Cc1ccc(Nc2c([N+](=O)[O-])cc([N+](=O)[O-])cc2[N+](=O)[O-])cc1 | inactive: -1.81%

Structure (SMILES) | activation
Cc1cccc(C)c1OP(C)(=O)Nc1ccc(SC(F)(F)F)cc1 (centres undefined) | inactive: 3.77%
Cc1cc(C)cc(OP(C)(=O)Nc2ccc(SC(F)(F)F)cc2)c1 (centres undefined) | inactive: 6.75%
CCc1ccc(OP(C)(=O)N2CCN(c3ccc([N+](=O)[O-])cc3)CC2)cc1 (centres undefined) | inactive: -0.05%
CP(=O)(NC(=O)Nc1ccccc1)Oc1ccccc1 (centres undefined) | inactive: -0.42%
O=[N+]([O-])c1cc([N+](=O)[O-])c(O)c([N+](=O)[O-])c1.c1ccc(Oc2ccncc2)cc1 | inactive: -0.1%
CCOC(=O)c1ccc(NP(C)(=O)Oc2ccc(OC)cc2)cc1 (centres undefined) | inactive: -0.66%
CCOP(C)(=S)SCC(=O)NC(C)C(=O)O (centres undefined) | inactive: 0.23%
CP(=O)(Nc1ccccn1)Oc1ccc(Cl)cc1 (centres undefined) | inactive: -0.68%
CP(=S)(Nn1cnnc1)Oc1ccccc1 (centres undefined) | inactive: 0.86%
CP(=O)(Nc1ccccc1Br)Oc1ccccc1 (centres undefined) | inactive: -2.01%
COc1ccccc1OP(C)(=O)Nc1ccccc1 (centres undefined) | inactive: 0.09%
O=[N+]([O-])c1cc([N+](=O)[O-])c(Nc2cccnc2)c([N+](=O)[O-])c1 | inactive: -1.87%
O=[N+]([O-])c1ccc2c(c1)C=Nc1ccccc1O2 | inactive: -2.2%
Cc1cccc(C)c1OP(C)(N)=O (centres undefined) | inactive: -2.06%
CC(C)(C)c1ccc(OP(C)(=O)Nc2ccc(SC(F)(F)F)cc2)cc1 (centres undefined) | inactive: -0.89%
Cc1ccc(NP(C)(=O)Oc2ccccc2)c(C)c1 (centres undefined) | inactive: -2.72%
COc1ccccc1OP(C)(=O)Nc1ccc(C)cc1 (centres undefined) | inactive: 2.62%
CCOC(=O)c1ccc(NP(C)(=O)Oc2ccccc2)cc1 (centres undefined) | inactive: -1.08%
Cc1cc(C)cc(OP(C)(N)=O)c1 (centres undefined) | inactive: 2.57%
COc1ccc(OP(C)(=O)Nc2cccc(F)c2)cc1 (centres undefined) | inactive: 1.65%
COc1ccccc1OP(C)(=O)Nc1cc(Cl)ccc1C (centres undefined) | inactive: -0.78%
CCN(CC)CCCOC(=O)C(O)(c1ccccc1)c1ccccc1 | inactive: -2.43%
